Experimental data from BigSolDB 2.1.

Conditions: in n-octanol

O=C(O)c1ccccc1
Conditions | solubility (mole fraction)
295.3 K | 0.167
297.65 K | 0.18
301.85 K | 0.203
304.25 K | 0.211
305.25 K | 0.219
307.75 K | 0.227
309.35 K | 0.235
312.3 K | 0.25
313.95 K | 0.266
317.15 K | 0.279
320.85 K | 0.29
322.15 K | 0.3
